# Measurements taken from US11396496B2, “1,4-substituted isoquinoline inhibitors of KEAP1/NRF2 protein-protein interaction” (THE BOARD OF TRUSTEES OF THE UNIVERSITY OF ILLINOIS, priority 2018, dated 2022).
# Protein sequences, listed by entry. Tags and fused reporters are not part of them. Residues count along the entry.
# UniProt Q14145, 321-609 limits assumed: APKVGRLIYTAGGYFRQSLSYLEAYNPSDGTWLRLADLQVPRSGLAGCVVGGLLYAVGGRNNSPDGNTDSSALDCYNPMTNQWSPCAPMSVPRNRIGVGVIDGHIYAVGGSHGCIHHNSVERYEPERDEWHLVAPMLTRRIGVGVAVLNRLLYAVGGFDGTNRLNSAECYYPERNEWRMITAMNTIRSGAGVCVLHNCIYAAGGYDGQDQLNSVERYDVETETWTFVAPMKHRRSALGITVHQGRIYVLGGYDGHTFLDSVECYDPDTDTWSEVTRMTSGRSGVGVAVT
# Target: Kelch domain of KEAP1 (Homo sapiens (Human), UniProt Q14145)
# Test: Fluorescence anisotropy assay of KEAP1-NRF2 interaction inhibition
# Type: binding
smiles,measurement,setting,value
COc1ccc(S(=O)(=O)Nc2cnc(N3C[C@H](c4ccccc4)C[C@H]3C(=O)O)c3ccccc23)cc1,IC50,"Table C, unit inferred",938 nM
same,IC50,"fluorescent NRF2 peptide and Kelch domain of KEAP1, fluorescence anisotropy",938 nM
